Source: patent publication US10188639B2, “Methods of treating neurological, metabolic, and other disorders using enantiopure deuterium-enriched pioglitazone” (DeuteRx, LLC, priority 2014, dated 2019)
Where two headings read alike, the source gives them in different places.

Tests used:
[1] = mouse plasma; for k RS, enantiomerization h-R-pio to h-S-pio / k SR, enantiomerization h-S-pio to h-R-pio: fitted
[2] = human plasma; for k RS, enantiomerization h-R-pio to h-S-pio / k SR, enantiomerization h-S-pio to h-R-pio: fitted
db/db mice = assay: db/db mouse model of type II diabetes, 10-day daily oral dosing; settings: for serum triglycerides: 20 mg/kg daily oral gavage, 10 days, compared with h-rac-pio 30 mg/kg; for decrease of serum amyloid A: 10 days daily oral, d-R-pio 20 mg/kg, h-rac-pio 30 mg/kg, vs. vehicle
[3] = average of the h-S and h-R fits, fixed in the d-rac analysis

## CCc1ccc(CCOc2ccc(C[C@@H]3SC(=O)NC3=O)cc2)nc1 [h-S-pio, reference compound]
[1]; 37° C.
  k RS, enantiomerization h-R-pio to h-S-pio: 0.792 h⁻¹
  k SR, enantiomerization h-S-pio to h-R-pio: 0.979 h⁻¹
[2]; 37° C.
  k RS, enantiomerization h-R-pio to h-S-pio: 0.434 h⁻¹
  k SR, enantiomerization h-S-pio to h-R-pio: 0.427 h⁻¹

## [2H][C@]1(Cc2ccc(OCCc3ccc(CC)cn3)cc2)SC(=O)NC1=O [d-R-pio, (R)-5-({p-[2-(5-Ethyl-2-pyridyl)ethoxy]phenyl}methyl)-(5-^2H)-1,3-thiazolidine-2,4-dione]
db/db mice
  serum triglycerides: The same was observed
  decrease of serum amyloid A: statistically significant

## CCc1ccc(CCOc2ccc(CC3SC(=O)NC3=O)cc2)nc1 (racemic) [h-rac-pio, rac-5-({p-[2-(5-Ethyl-2-pyridyl)ethoxy]phenyl}methyl)-1,3-thiazolidine-2,4-dione, reference compound]
db/db mice
  decrease of serum amyloid A: statistically significant

## [2H][C@@]1(Cc2ccc(OCCc3ccc(CC)cn3)cc2)SC(=O)NC1=O [d-S-pio, (S)-5-({p-[2-(5-Ethyl-2-pyridyl)ethoxy]phenyl}methyl)-(5-^2H)-1,3-thiazolidine-2,4-dione]
db/db mice
  serum triglycerides: The same was observed

## CCc1ccc(CCOc2ccc(C[C@H]3SC(=O)NC3=O)cc2)nc1 [h-R-pio, reference compound]
[1]; 37° C.
  k RS, enantiomerization h-R-pio to h-S-pio: 0.694 h⁻¹
  k SR, enantiomerization h-S-pio to h-R-pio: 0.867 h⁻¹
[2]; 37° C.
  k RS, enantiomerization h-R-pio to h-S-pio: 0.447 h⁻¹
  k SR, enantiomerization h-S-pio to h-R-pio: 0.439 h⁻¹

## [2H]C1(Cc2ccc(OCCc3ccc(CC)cn3)cc2)SC(=O)NC1=O (racemic) [d-rac-pio]
[1]; 37° C.
  k DRR, D/H exchange d-R-pio to h-R-pio: 6.06e-05 s⁻¹
  k DRS, D/H exchange d-R-pio to h-S-pio: 3.92e-05 s⁻¹
  k DSR, D/H exchange d-S-pio to h-R-pio: 3.28e-05 s⁻¹
  k DSS, D/H exchange d-S-pio to h-S-pio: 0.0002883 s⁻¹
[1]; [3]
  k RS*, enantiomerization h-R-pio to h-S-pio: 0.743 h⁻¹
  k SR*, enantiomerization h-S-pio to h-R-pio: 0.924 h⁻¹
[2]; 37° C.
  k DRR, D/H exchange d-R-pio to h-R-pio: 7.58e-06 s⁻¹
  k DRS, D/H exchange d-R-pio to h-S-pio: 4.61e-05 s⁻¹
  k DSR, D/H exchange d-S-pio to h-R-pio: 4.5e-05 s⁻¹
  k DSS, D/H exchange d-S-pio to h-S-pio: 5.81e-05 s⁻¹
[2]; [3]
  k RS*, enantiomerization h-R-pio to h-S-pio: 0.440 h⁻¹
  k SR*, enantiomerization h-S-pio to h-R-pio: 0.433 h⁻¹
